Data: publication PMC7830743 (Journal of medicinal chemistry, 2020)

Target: LDHA (Homo sapiens, UniProt P00338)
Test: SPR binding assay

| Structure (SMILES) | residence time |
| --- | --- |
| NS(=O)(=O)c1ccc(Cc2c(-c3ccc(F)c(C#CC4CCCC4)c3)nn(-c3nc(C(=O)O)cs3)c2CC2CC2)cc1F [Compound 23, 2-(3-(3-(Cyclopentylethynyl)-4-fluorophenyl)-5-(cyclopropylmethyl)-4-(3-fluoro-4-sulfamoylbenzyl)-1H-pyrazol-1-yl)thiazole-4-carboxylic Acid] | > 16600 min |
| NS(=O)(=O)c1ccc(Cc2c(-c3ccc(F)c(C#CCC4CCCC4)c3)nn(-c3nc(C(=O)O)cs3)c2CC2CC2)cc1F [Compound 38, 2-(3-(3-(3-Cyclopentylprop-1-yn-1-yl)-4-fluorophenyl)-5-(cyclo-propylmethyl)-4-(3-fluoro-4-sulfamoylbenzyl)-1H-pyrazol-1-yl)-thiazole-4-carboxylic Acid] | > 16600 min |
